“And” between values parts separate entries of the source, which are not always exact repeats. Equal values may be shown once. This is a selection; strong and weak results do not stand in their true shares.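 How to read the values: 0–100, growth inhibition (40 = 60% inhibited); 0, no net growth; -100 to 0, cell death (-40 = 40% of starting cells died; -100 = all dead).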 The source made the active and inactive calls. How the source made its calls: active means growth percent below 10; inactive means the rest.

In one assay the test system is NCI-H522 lung. The assay is described as follows: NCI-60 one-dose screen, 48 h (100 = growth as untreated, 0 = no growth, -100 = all killed). To be noted: 10 µM.
Regarding `Nc1cc([N+](=O)[O-])cc([N+](=O)[O-])c1O`, the growth was inactive: 108% and inactive: 87.1%.
Still for that read-out and setting: the value for `CC(C)N1CCN(CCOC(=O)C(O)(c2ccccc2)c2ccccc2)CC1` was inactive: 88.5%; that for `CC(C)N(CCCl)C(C)C` was inactive: 104%.
The same measure, in the same setting: under `O=[N+]([O-])OCCOc1ccc([N+](=O)[O-])cc1[N+](=O)[O-]` stands inactive: 86.8%; under `O=[N+]([O-])N(CCOC(N(F)F)(N(F)F)N(F)F)CC([N+](=O)[O-])([N+](=O)[O-])[N+](=O)[O-]`, inactive: 88.8%.
Still for that read-out and setting: under `NN/C(N)=N/[N+](=O)[O-]` stands inactive: 92.9%.

For another assay, the system named is A549/ATCC NSCLC. The description is as above. To be noted: 10 µM.
On to `CCCOP(=S)(Cl)OCCC`, for which the growth is inactive: 102%.
Still for that read-out and setting: the value for `CN(C)CCS` was inactive: 107% and inactive: 89.4%.
Consider `O=C(O)C1(O)c2ccccc2-c2ccccc21`, for which the growth was inactive: 81.9% and inactive: 97.4%.
Turning to `Nc1cccc(Cl)c1.O=[N+]([O-])c1cc([N+](=O)[O-])c(O)c([N+](=O)[O-])c1`, the growth was inactive: 105%.
Still for that read-out and setting: the value for `OCCSCCO` was inactive: 101%.
Same read-out and setting: under `Nc1cc([As](Cl)Cl)cc(N)c1O` stands inactive: 91.8%.
The same measure, in the same setting: the value for `O=[N+]([O-])N(CCN(CC(Br)([N+](=O)[O-])[N+](=O)[O-])[N+](=O)[O-])CC(Br)([N+](=O)[O-])[N+](=O)[O-]` was inactive: 95.8%; that for `O=C1N([N+](=O)[O-])CCN1[N+](=O)[O-]` was inactive: 96.3%.
Regarding `CC[N+]([O-])(CC)Cc1ccccc1.O=[N+]([O-])c1cc([N+](=O)[O-])c(S(=O)(=O)O)c([N+](=O)[O-])c1`, the growth is inactive: 100%.

The values are drawn from PubChem BioAssay (NCI).
